Data reported in patent publication US4225610A, “Immunoactivators derived from amino thiazoles” (Pierre Fabre, S.A., priority 1977, dated 1980).

Assay: in vivo
Conditions: mouse, po
Description: The acute toxicity after a single administration of the products per os was studied in mice.
The compounds were placed in suspension in a mixture of Tween 80™ and distilled water. […] Exper.

c1ccc([C@H]2CN3CCSC3=N2)cc1 [Levamisole, L-tetramisole, reference compound]
LD50 at 168 h: 185 mg/kg
